Ab-14 heavy chain CDR variants: yeast mating affinities

Target: peptide PDVDLGDISGINAS, taken from heptad repeat 2 (HR2) of SARS-CoV-2 spike.

Ab-14 is the parent antibody, in scFv form: VH, then the linker GGGGSGGGGSGGGGS, then VL. The light chain is unchanged in all variants.
VH: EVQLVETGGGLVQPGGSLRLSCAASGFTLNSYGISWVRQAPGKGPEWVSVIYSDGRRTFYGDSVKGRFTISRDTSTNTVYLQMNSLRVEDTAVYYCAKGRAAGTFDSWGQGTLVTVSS
VL: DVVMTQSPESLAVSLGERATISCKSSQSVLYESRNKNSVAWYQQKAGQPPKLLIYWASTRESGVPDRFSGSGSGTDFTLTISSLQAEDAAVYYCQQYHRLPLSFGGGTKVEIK

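The parent was found by panning a naive human phage display library on the peptide. This is the validation round: designs drawn from the data on random variants, tested in the same kind of assay. Their group label is 14H_GP_Gibbs (GP: Gaussian process model; Gibbs: Gibbs sampling; a sequence that several methods proposed may carry one label only). Affinity was read by AlphaSeq, a pooled yeast mating assay with surface-displayed partners. The frequency of each diploid, read from paired DNA barcodes, reflects how well the two displayed proteins bind. Scores were corrected for input abundance and mapped to Kd with protein pairs of known affinity run in the same pool. There are six technical replicates.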

The whole VH of each variant is written out.
Numbers give log10(Kd / nM), so 0 is 1 nM and 3 is 1 µM. Smaller is tighter.
"n.d." marks a missing value. The strain was present, yet no cells mated with the target were sequenced in that replicate, which points to weak or no binding.

{"VH": "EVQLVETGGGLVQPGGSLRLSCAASGFSLNSYGISWVRQAPGKGPEWVSVIYSDGRRTFYADRVKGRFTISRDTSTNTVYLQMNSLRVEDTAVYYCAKGEAAGTFDKWGQGTLVTVSS", "log10 Kd, replicates": "1.27 1.47 0.62 1.57 1.81 1.95", "control signals": "2 of 18 (2.41)"}
{"VH": "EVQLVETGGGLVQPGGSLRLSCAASGFELNSYGISWVRQAPGKGPEWVSVIYSDGRRTFYGDSVKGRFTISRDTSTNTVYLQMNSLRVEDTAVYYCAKGEAAGTFDDWGQGTLVTVSS", "log10 Kd, replicates": "0.41 1.79 0.94 0.58 0.24 0.68", "control signals": "0 of 18"}
{"VH": "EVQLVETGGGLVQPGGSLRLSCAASGFTLNSYGISWVRQAPGKGPEWVSVIYSDGKRTFYSDSVKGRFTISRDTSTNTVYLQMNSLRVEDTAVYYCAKGQVAGTFDSWGQGTLVTVSS", "log10 Kd, replicates": "-0.39 -0.50 -0.35 -0.72 -0.18 0.08", "control signals": "0 of 18"}
{"VH": "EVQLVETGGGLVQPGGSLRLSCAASGFTLNDYGISWVRQAPGKGPEWVSVIYSDGRRTFYGDSVKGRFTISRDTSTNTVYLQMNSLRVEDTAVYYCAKGREAGTFDAWGQGTLVTVSS", "log10 Kd, replicates": "1.77 0.84 0.93 0.77 0.76 0.92", "control signals": "1 of 18 (3.83)"}
{"VH": "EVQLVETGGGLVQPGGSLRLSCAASGFDLNSYGISWVRQAPGKGPEWVSVIYSDGRRTFYGDSVKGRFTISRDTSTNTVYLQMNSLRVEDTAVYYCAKGKQAGTFDEWGQGTLVTVSS", "log10 Kd, replicates": "0.19 0.13 0.12 -0.38 -0.27 0.03", "control signals": "0 of 18"}
{"VH": "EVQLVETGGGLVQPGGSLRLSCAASKFKLNSYGISWVRQAPGKGPEWVSVIYSDGRRTFYADSVKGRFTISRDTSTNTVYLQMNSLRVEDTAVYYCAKGRNAGTFDSWGQGTLVTVSS", "log10 Kd, replicates": "n.d. n.d. 2.24 4.37 n.d. n.d.", "control signals": "0 of 18"}
{"VH": "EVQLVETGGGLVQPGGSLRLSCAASPFSLNSYGISWVRQAPGKGPEWVSVIYSDGRRTFYSDSVKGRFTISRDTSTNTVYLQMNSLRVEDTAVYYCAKGRTAGTFDSWGQGTLVTVSS", "log10 Kd, replicates": "1.97 2.95 2.78 1.68 2.36 2.23", "control signals": "0 of 18"}
{"VH": "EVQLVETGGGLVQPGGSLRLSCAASGFFLNEYGISWVRQAPGKGPEWVSVIYSDGRRTFYADSVKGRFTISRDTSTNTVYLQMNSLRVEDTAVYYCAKGRTAGTFDSWGQGTLVTVSS", "log10 Kd, replicates": "0.29 0.50 0.34 0.08 0.09 0.57", "control signals": "1 of 18 (1.59)"}
{"VH": "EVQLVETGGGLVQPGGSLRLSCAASGFELNMYGISWVRQAPGKGPEWVSVIYSDGRRTFYGDQVKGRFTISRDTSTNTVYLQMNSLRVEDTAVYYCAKGEAAGTFDSWGQGTLVTVSS", "log10 Kd, replicates": "2.14 1.41 1.61 1.35 1.38 1.70", "control signals": "1 of 18 (3.35)"}
{"VH": "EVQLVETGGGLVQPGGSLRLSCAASGFTLNSYGISWVRQAPGKGPEWVSVIYSDGKRTFYGDSVKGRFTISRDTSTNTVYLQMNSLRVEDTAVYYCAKGQAAGTFDNWGQGTLVTVSS", "log10 Kd, replicates": "2.64 n.d. 2.02 n.d. n.d. n.d.", "control signals": "0 of 18"}
{"VH": "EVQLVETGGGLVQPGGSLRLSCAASGFDLNSYGISWVRQAPGKGPEWVSVIYSDGRRTFYGDMVKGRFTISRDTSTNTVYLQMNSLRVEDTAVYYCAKGRTAGTFDMWGQGTLVTVSS", "log10 Kd, replicates": "0.90 0.61 0.96 0.75 0.50 1.20", "control signals": "0 of 18"}
{"VH": "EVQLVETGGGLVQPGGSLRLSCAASGFDLNSYGISWVRQAPGKGPEWVSVIYSDGRRTFYQDSVKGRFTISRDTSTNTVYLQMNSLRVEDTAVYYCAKGRWAGTFDAWGQGTLVTVSS", "log10 Kd, replicates": "-0.06 -0.22 n.d. -0.30 n.d. -0.32", "control signals": "0 of 18"}
{"VH": "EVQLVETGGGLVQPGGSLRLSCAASGFELNAYGISWVRQAPGKGPEWVSVIYSDGRRTAYGDSVKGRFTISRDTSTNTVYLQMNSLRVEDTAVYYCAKGRQAGTFDSWGQGTLVTVSS", "log10 Kd, replicates": "n.d. 0.02 1.19 1.45 1.85 2.21", "control signals": "0 of 18"}
{"VH": "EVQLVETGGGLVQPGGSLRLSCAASGFHLNSYGISWVRQAPGKGPEWVSVIYSDGRRTFYADAVKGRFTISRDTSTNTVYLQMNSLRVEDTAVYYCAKGRTAGTFDSWGQGTLVTVSS", "log10 Kd, replicates": "1.43 1.55 1.15 2.04 1.61 1.38", "control signals": "0 of 18"}
{"VH": "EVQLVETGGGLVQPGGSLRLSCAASGFTLESYGISWVRQAPGKGPEWVSVIYSDGRRTFYDDDVKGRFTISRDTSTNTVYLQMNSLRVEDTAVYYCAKGRAAGTFDSWGQGTLVTVSS", "log10 Kd, replicates": "1.51 0.47 0.54 0.44 0.54 0.34", "control signals": "0 of 18"}
{"VH": "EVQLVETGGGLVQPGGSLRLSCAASGFSLNSYGISWVRQAPGKGPEWVSVIYSDGRRTFYSDQVKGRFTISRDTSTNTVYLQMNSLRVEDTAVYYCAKGRLAGTFDSWGQGTLVTVSS", "log10 Kd, replicates": "-0.28 -0.43 0.23 0.22 -0.54 0.10", "control signals": "1 of 18 (1.38)"}
{"VH": "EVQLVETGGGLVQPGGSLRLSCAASGFTLESYGISWVRQAPGKGPEWVSVIYSDGRRTFYQDSVKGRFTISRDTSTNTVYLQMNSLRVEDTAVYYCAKGRAAGTFDKWGQGTLVTVSS", "log10 Kd, replicates": "n.d. n.d. n.d. n.d. n.d. n.d.", "control signals": "0 of 18"}
{"VH": "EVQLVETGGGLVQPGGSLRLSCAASGFDLNSYGISWVRQAPGKGPEWVSVIYSDGRRTFYSDSVKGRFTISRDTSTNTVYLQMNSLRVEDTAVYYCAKGRAAGKFDSWGQGTLVTVSS", "log10 Kd, replicates": "n.d. n.d. n.d. 2.71 n.d. n.d.", "control signals": "0 of 18"}
{"VH": "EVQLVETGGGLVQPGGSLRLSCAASGFQLNSYGISWVRQAPGKGPEWVSVIYSDGRRTFYQDQVKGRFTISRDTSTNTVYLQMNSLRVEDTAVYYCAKGQTAGTFDSWGQGTLVTVSS", "log10 Kd, replicates": "n.d. n.d. 1.28 n.d. n.d. 1.92", "control signals": "0 of 18"}
{"VH": "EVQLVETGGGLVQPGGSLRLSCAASGFTLNSYGISWVRQAPGKGPEWVSVIYSDGKRTFYGDDVKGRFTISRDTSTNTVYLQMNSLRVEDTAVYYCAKGRVAGTFDKWGQGTLVTVSS", "log10 Kd, replicates": "1.14 n.d. 1.20 0.97 0.79 1.50", "control signals": "0 of 18"}
{"VH": "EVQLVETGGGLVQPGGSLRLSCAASGFWLNEYGISWVRQAPGKGPEWVSVIYSDGRRTFYGDSVKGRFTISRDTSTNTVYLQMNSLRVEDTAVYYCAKGRWAGTFDSWGQGTLVTVSS", "log10 Kd, replicates": "1.44 2.31 n.d. 2.68 1.97 2.20", "control signals": "0 of 18"}
{"VH": "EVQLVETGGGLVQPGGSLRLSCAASGFDLNSYGISWVRQAPGKGPEWVSVIYSDGRRTFYADSVKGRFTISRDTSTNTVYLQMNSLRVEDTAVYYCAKGLTAGTFDSWGQGTLVTVSS", "log10 Kd, replicates": "-0.31 -0.49 0.49 0.08 -0.85 0.18", "control signals": "0 of 18"}

Picked from the list: the 2 lowest averages where every replicate gave a value.

{"VH": "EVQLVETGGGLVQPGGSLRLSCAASGFTLNSYGISWVRQAPGKGPEWVSVIYSDGKRTFYSDSVKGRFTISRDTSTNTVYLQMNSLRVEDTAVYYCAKGQVAGTFDSWGQGTLVTVSS", "log10 Kd, replicates": "-0.39 -0.50 -0.35 -0.72 -0.18 0.08", "control signals": "0 of 18"}
{"VH": "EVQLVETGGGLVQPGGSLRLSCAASGFDLNSYGISWVRQAPGKGPEWVSVIYSDGRRTFYADSVKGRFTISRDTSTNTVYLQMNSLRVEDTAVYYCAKGLTAGTFDSWGQGTLVTVSS", "log10 Kd, replicates": "-0.31 -0.49 0.49 0.08 -0.85 0.18", "control signals": "0 of 18"}

The range of this assay differs from that of the first round, and the authors advise against merging the two.
In the paper, a design with two or fewer of six values counts as a poor binder.
Background: pairings of all heavy chain designs with three empty control strains gave a value in 1% of cases (median 2.08, 5th percentile 0.84). Values in that range, when seen in few replicates, are hard to tell from nonspecific mating. Also given: how often the same scFv was detected with the empty control strains, with their mean in brackets.

From the AlphaSeq antibody data of Li et al. 2023 (doi:10.1038/s41467-023-39022-2), copy in the FLAb collection.